# Tested on: mouse brain
# Experiment: in situ brain perfusion (brain uptake)
substance,measurement,value
(Etoposide-4′-Dimethylglycine-2″-Glutaric)3-Angiopep-2 Conjugate [EtopDMG-An2(3:1)],Brain Kin,0.0014 mL/s/g

# — patent publication US8828925B2, “Etoposide and doxorubicin conjugates for drug delivery” (Angiochem Inc., priority 2008, dated 2014)
